Literature values as cited in paper PMC5653298.

Molecular target: Mesothelin (Homo sapiens) (UniProt Q13421)

- Kd: 1.5 nM
Substance: Amatuximab
